Experimental data: publication PMC10184128 (Journal of Medicinal Chemistry, 2023)

Amino acid sequences for entries named in this document (tags omitted).
UniProt P43354, whole entry: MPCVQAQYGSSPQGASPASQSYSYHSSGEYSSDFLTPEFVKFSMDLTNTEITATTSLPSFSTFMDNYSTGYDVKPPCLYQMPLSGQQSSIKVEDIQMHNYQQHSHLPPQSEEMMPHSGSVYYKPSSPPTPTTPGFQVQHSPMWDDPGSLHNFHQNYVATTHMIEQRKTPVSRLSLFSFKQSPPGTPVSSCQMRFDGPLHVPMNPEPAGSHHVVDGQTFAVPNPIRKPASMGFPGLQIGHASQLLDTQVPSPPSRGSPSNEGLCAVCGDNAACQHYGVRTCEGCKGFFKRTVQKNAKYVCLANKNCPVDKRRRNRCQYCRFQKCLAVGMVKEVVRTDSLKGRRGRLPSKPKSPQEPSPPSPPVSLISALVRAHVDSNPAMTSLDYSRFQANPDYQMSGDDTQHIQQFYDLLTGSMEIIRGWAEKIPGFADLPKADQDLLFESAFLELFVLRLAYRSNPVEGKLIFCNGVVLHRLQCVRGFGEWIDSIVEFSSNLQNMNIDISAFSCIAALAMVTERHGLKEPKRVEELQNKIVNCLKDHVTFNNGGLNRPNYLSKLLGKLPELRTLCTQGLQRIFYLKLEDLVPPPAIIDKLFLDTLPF

Target: full-length human Nurr1 (NBRE) (Homo sapiens, UniProt P43354)
Details: read-out: EC50 full-length human Nurr1 monomer (NBRE)

C#CCOc1cccc(-c2ccc(NC(=O)C3=C(C(=O)O)CCC3)c(F)c2)c1 [compound 29, 2-[(3-Fluoro-3′-prop-2-yn-1-yloxy[1,1′-biphenyl]-4-yl)carbamoyl]cyclopent-1-ene-1-carboxylic acid]
EC50: 0.22 ± 0.08 µM
